We go through one compound from article PMC12369477, “Phenylacetic acid metabolism in land plants: novel pathways and metabolites” (Journal of Experimental Botany, 2025).

One assay concerns the target T1, UGT84B1 (Arabidopsis thaliana, UniProt O22182).
T1 sequence (O22182 1-456): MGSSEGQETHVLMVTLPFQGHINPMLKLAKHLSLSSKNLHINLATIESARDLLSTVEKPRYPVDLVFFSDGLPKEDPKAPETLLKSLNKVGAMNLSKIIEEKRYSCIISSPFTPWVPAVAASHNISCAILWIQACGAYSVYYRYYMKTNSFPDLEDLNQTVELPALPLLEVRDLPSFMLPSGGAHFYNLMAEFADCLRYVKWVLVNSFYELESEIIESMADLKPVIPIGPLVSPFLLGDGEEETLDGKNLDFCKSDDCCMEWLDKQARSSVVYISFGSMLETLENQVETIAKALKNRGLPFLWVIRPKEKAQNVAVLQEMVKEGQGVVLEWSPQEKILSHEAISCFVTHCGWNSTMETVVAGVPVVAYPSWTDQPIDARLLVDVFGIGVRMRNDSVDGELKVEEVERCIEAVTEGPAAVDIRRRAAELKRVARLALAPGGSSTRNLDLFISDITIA

The target in another assay is T2, UGT74D1 (Arabidopsis thaliana, UniProt Q9SKC5).
T2 sequence (Q9SKC5 1-456): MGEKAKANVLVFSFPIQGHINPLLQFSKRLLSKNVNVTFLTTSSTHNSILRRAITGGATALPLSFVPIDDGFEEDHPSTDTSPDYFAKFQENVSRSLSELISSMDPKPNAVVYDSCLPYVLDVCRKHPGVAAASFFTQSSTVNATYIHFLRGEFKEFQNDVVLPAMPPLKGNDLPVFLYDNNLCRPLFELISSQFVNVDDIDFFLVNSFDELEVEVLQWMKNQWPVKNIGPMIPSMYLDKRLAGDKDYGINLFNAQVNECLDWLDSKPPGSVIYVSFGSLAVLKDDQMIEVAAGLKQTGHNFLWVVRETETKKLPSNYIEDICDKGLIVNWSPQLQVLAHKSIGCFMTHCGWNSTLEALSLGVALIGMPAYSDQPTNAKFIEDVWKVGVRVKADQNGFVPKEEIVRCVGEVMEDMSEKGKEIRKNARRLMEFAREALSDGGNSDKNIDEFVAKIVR

SMILES strings stand for the structures.

For `O=C(O)Cc1ccccc1` [PAA, phenylacetic acid], the “bacterial lysate glucosylation assay, HPLC-MS/MS; knockout line” value was “both experiments demonstrated involvement of UGT84B1 and UGT74D1 in PAA glucosylation” on UGT84B1; “proved the capability of AtUGT74D1 to produce PAA-glc” on UGT74D1.
